Shown are actives, neighbours in structure and some others; about 16% of the full set was active somewhere.
TDP1 block: inhibitors of human tyrosyl-DNA phosphodiesterase TDP1; Q9NUW8; recombinant TDP1, AlphaScreen DNA substrate cleavage; Potency, µM (highest dose often 130 µM), for inactives: at the highest dose activity change, negative = inhibition, actives largely listed as inhibitors; 350,000 tested, 0.28% active; also: potency is read from the fitted curve at half-maximal effect; % is scaled to controls: 0 for no effect and ±100 for the full control effect; nearly all actives have a fitted effect of over 40% in size
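Steps: enzyme plus compound, 15 min RT; add biotin/phosphotyrosine-FITC oligonucleotide (15 nM final), react 5 min; add donor/acceptor beads (10 ug/ml final), 10 min; read AlphaScreen. Tdp1 at 1 nM final.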
uPA surface inh: blocks generation of uPA at the cell surface; cell surface uPA generation assay, qHTS; Potency, µM (top dose mostly 38.3 µM), inactives show top-dose activity change, negative = inhibition, hits mostly inhibitors; 330,000 tested, 0.31% active; active = well fitted inhibition curve with a large enough effect; inconclusive = small, poorly fitted or top-dose-only effect; inactive = no such curve, though single readings can be large or run the other way; tested in mouse RAW 264.7 cells; also: potency is read from the fitted curve at half-maximal effect; % is scaled to controls: 0 for no effect and ±100 for the full control effect; nearly all actives have a fitted effect of over 55% in size
miR-21 reporter: raises the signal of a miR-21 reporter; AID 2288; 340,000 tested, under 10 active; Potency, µM (doses to about 38.3 µM), inactives show at the top dose reporter change, positive = more light; HeLa miR-21 FLuc reporter, luciferase, 48 h; active = well fitted rising curve with a large enough effect; inconclusive = small, poorly fitted or top-dose-only effect; inactive = no such curve, though single readings can be large or run the other way;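 note: % of control where 0% means no effect; miR-21 action dims this reporter so a rising signal means less miR-21 action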
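HeLa miR-21-FLuc reporter line, endogenous miR-21; 2000 cells/well in DMEM/10% FBS; compound titration up to ~40uM final, 48 h, 37 degree Celsius; luciferase detection reagent, 15 min lysis, CCD luminescence.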
DT40 TDP1 CPT: growth inhibition of DT40 Tdp1-/-;hTDP1 cells with camptothecin (screen for TDP1 inhibitors). chicken DT40 Tdp1-/-;hTDP1 cells + 20 nM CPT, ATP luminescence, 48 h. 420,000 tested, 12% active. AID 686979. Potency, µM (series often up to 46.2 µM), for the others: top-dose activity change, negative = growth inhibition, hits mostly inhibitors; also: potency is read from the fitted curve at half-maximal effect; % is scaled to controls: 0 for no effect and ±100 for the full control effect; nearly all actives have a fitted effect of over 55% in size
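Chicken DT40 Tdp1-/- cells complemented with human TDP1, 400 cells/well, exposed to compounds plus 20 nM camptothecin for at least 48 h at 37 C; viability read as ATP content by CellTiter-Glo luminescence.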
TDP1 cell noCPT: qHTS for Inhibitors of human tyrosyl-DNA phosphodiesterase 1 (TDP1): qHTS in cells in absence of CPT. Potency, µM (titrated, usually from 46.2 µM), without a hit: at the highest dose activity change, negative = growth inhibition, actives largely listed as inhibitors. 420,000 tested, 15% active. AID 686978, 2013. DT40 Tdp1-/- hTDP1 cells, no CPT, ATP luminescence, 48 h; also: potency is read from the fitted curve at half-maximal effect; % is scaled to controls: 0 for no effect and ±100 for the full control effect; nearly all actives have a fitted effect of over 55% in size
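Cells were dispensed at 400 per well, compounds added by pin tool, plates incubated ≥48 hr at 37 °C, then CellTiter-Glo added for 30 min at room temperature before luminescence reading. Line: DT40 Tdp1-/- complemented with hTDP1; camptothecin omitted.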
The depositor's hits bear a star; [ ] = another dose, or the depositor's remark. Unless noted, calls follow the shape of the dose curve; as a rule, active = well fitted curve in the direction sought with a large enough effect; inconclusive = small, poorly fitted or top-dose-only effect, or another doubt; inactive = no such curve, though single readings can be large; an effect the other way counts as inactive or inconclusive.

COc1cccc(N2CCN(C(=O)c3nc(-c4ccc(Cl)cc4)n4c3CCCCC4)CC2)c1 was read as TDP1 block 14%, miR-21 reporter inconclusive, DT40 TDP1 CPT inconclusive and TDP1 cell noCPT inconclusive.
Screening COc1ccc(CCNC(=O)c2nc(-c3ccc(Cl)cc3)n3c2CCCCC3)c(OC)c1 returned TDP1 block 9%, miR-21 reporter 15%, DT40 TDP1 CPT 10µM* and TDP1 cell noCPT 9.2µM*.
Screening O=C(c1nc(-c2ccc(Cl)cc2)n2c1CCCCC2)N1CCN(c2ccccc2)CC1 returned TDP1 block 6%, miR-21 reporter 0%, DT40 TDP1 CPT inconclusive and TDP1 cell noCPT 21µM*.
`Cc1ccc(-c2nc(C(=O)NCc3ccccc3Cl)c3n2CCCCC3)cc1` gave TDP1 block 4% and miR-21 reporter -6%.
Screening Cc1cc(C)cc(N(CC(=O)NCc2ccco2)S(=O)(=O)c2ccccc2)c1 returned TDP1 block 11%, uPA surface inh 1%, miR-21 reporter 0%, DT40 TDP1 CPT -13% and TDP1 cell noCPT -30%.
`COc1cccc(C(=O)N2CCN(C(=O)c3ccc(-c4ccccc4)cc3)CC2)c1OC` gave TDP1 block 3%, uPA surface inh 5%, miR-21 reporter -1%, DT40 TDP1 CPT inconclusive and TDP1 cell noCPT inconclusive.
`COc1cc(OC)c(OC)cc1/C=C/c1ccnc2ccccc12` gave uPA surface inh -11%, DT40 TDP1 CPT 13µM* and TDP1 cell noCPT 16µM*.
For COc1ccc2ncccc2c1Cc1c(OC)ccc2ncccc12 the results were uPA surface inh 0%, DT40 TDP1 CPT 15µM* and TDP1 cell noCPT 13µM*.
Screening COc1ccccc1/C=C/c1ccnc2ccccc12 returned DT40 TDP1 CPT inconclusive and TDP1 cell noCPT 14µM*.
`COc1ccc(OC)c(/C=C/c2ccnc3ccccc23)c1` gave uPA surface inh -12%, DT40 TDP1 CPT 3.7µM* and TDP1 cell noCPT 4.6µM*.
Screening COc1ccc(S(=O)(=O)N2CCCCC2)cc1NC(=O)CN1C(=O)NC(C)(C2CC2)C1=O (stereo not drawn) returned TDP1 block 0%, uPA surface inh 0%, DT40 TDP1 CPT -16% and TDP1 cell noCPT -25%.
For CC(OC(=O)c1cc(=O)[nH]c2ccccc12)C(=O)c1ccccc1 (stereo not drawn) the results were TDP1 block 3%, uPA surface inh 7%, miR-21 reporter 0%, DT40 TDP1 CPT -18% and TDP1 cell noCPT -24%.
Cc1ccc(CSC2=Nc3ccccc3C3=NC(CCC(=O)NCCc4ccccc4)C(=O)N23)cc1 (stereo not drawn) was read as TDP1 block -2%, miR-21 reporter 4%, DT40 TDP1 CPT inconclusive and TDP1 cell noCPT inconclusive.
Screening Cn1cc(/C=C2\SC(=O)N(c3ccc(O)cc3)C2=O)c2ccccc21 returned uPA surface inh -11%, miR-21 reporter -30%, DT40 TDP1 CPT inconclusive and TDP1 cell noCPT 16µM*.
Cn1cc(/C=C2\SC(=O)N(c3ccccc3)C2=O)c2ccccc21 was read as TDP1 block 1%, uPA surface inh 2%, miR-21 reporter -21%, DT40 TDP1 CPT 1% and TDP1 cell noCPT -28%.
COc1ccccc1-c1sc2cc3c(cc2c1-c1ccc(OCCN2CCCCC2)cc1)OCO3 was read as TDP1 block 8%, uPA surface inh -17%, DT40 TDP1 CPT 16µM* and TDP1 cell noCPT 12µM*.
For COc1ccccc1-c1sc2ccccc2c1-c1ccc2c(c1)OCO2 the results were uPA surface inh -16%, miR-21 reporter -5%, DT40 TDP1 CPT 23µM* and TDP1 cell noCPT inconclusive.
COc1ccccc1-c1sc2cc3c(cc2c1-c1ccc2c(c1)OCO2)OCO3 was read as TDP1 block -2%, uPA surface inh -2%, DT40 TDP1 CPT inconclusive and TDP1 cell noCPT inconclusive.
For COc1ccccc1-c1sc2ccccc2c1-c1ccc(OCCN2CCOCC2)cc1 the results were TDP1 block 6%[56.1 µM], uPA surface inh -5%, DT40 TDP1 CPT inconclusive and TDP1 cell noCPT 13µM*.
`Cc1ccc(C)c2[nH]c(=O)c(CCNC(=O)c3ccc(S(=O)(=O)N4CCCC4)cc3)cc12` gave TDP1 block 2%, uPA surface inh -3%, miR-21 reporter -3%, DT40 TDP1 CPT inconclusive and TDP1 cell noCPT inconclusive.
For CCOC(=O)CSc1nc(-c2ccccc2)nc2ccc(C)cc12 the results were TDP1 block -1%, uPA surface inh -1%, miR-21 reporter -1%, DT40 TDP1 CPT -7% and TDP1 cell noCPT -24%.
Screening C=CCOc1ccc(/C=N/NC(=O)C2CCCC2)cc1OCC returned TDP1 block 5%, uPA surface inh -1%, miR-21 reporter -8%, DT40 TDP1 CPT -20% and TDP1 cell noCPT -13%.
For COc1ccc(OC)c(NC(=O)CSc2cn(CC(=O)N3CCCCCC3)c3ccccc23)c1 the results were TDP1 block 3%, miR-21 reporter 16%, DT40 TDP1 CPT inconclusive and TDP1 cell noCPT 21µM*.
For COc1ccc(NC(=O)CSc2cn(CC(=O)N3CCCCC3)c3ccccc23)c(OC)c1 the results were TDP1 block 8%, miR-21 reporter 7%, DT40 TDP1 CPT inconclusive and TDP1 cell noCPT inconclusive.
For COc1ccc(Cl)cc1NC(=O)CSc1cn(CC(=O)N2CCCCC2)c2ccccc12 the results were TDP1 block 0%, miR-21 reporter 30%, DT40 TDP1 CPT 21µM* and TDP1 cell noCPT 21µM*.
Screening CC(C)(C)SC(C(=O)N1CCOCC1)c1ccc(Br)cc1 (stereo not drawn) returned TDP1 block 14%, uPA surface inh 1%, miR-21 reporter 0%, DT40 TDP1 CPT 4% and TDP1 cell noCPT inconclusive.
`O=C(Cn1nnc2c(cnn2-c2ccc(F)cc2)c1=O)c1ccccc1F` gave TDP1 block 3%, uPA surface inh 5%, miR-21 reporter -5%, DT40 TDP1 CPT -8% and TDP1 cell noCPT -21%.
Screening N#Cc1sc2nccc(Nc3ccccc3)c2c1N returned uPA surface inh -1%, DT40 TDP1 CPT inconclusive and TDP1 cell noCPT 2.1µM*.
Screening O=C(c1ccc(Cl)cc1)N1CCN(S(=O)(=O)/C=C/c2ccccc2)CC1 returned TDP1 block -3%, uPA surface inh -5%, DT40 TDP1 CPT inconclusive and TDP1 cell noCPT 21µM*.
Screening CC1(OC(=O)C2CCCC2)C(=O)C=C2C=C(c3ccsc3)N(CCc3c[nH]c4ccccc34)C=C2C1=O (stereo not drawn) returned TDP1 block 14%[12.3 µM], uPA surface inh 7%, miR-21 reporter 6%, DT40 TDP1 CPT 21µM* and TDP1 cell noCPT inconclusive.

Some of these compounds in order of length of the SMILES, rising.
Screening CC(C)(C)SC(C(=O)N1CCOCC1)c1ccc(Br)cc1 (stereo not drawn) returned TDP1 block 14%, uPA surface inh 1%, miR-21 reporter 0%, DT40 TDP1 CPT 4% and TDP1 cell noCPT inconclusive.
`O=C(Cn1nnc2c(cnn2-c2ccc(F)cc2)c1=O)c1ccccc1F` gave TDP1 block 3%, uPA surface inh 5%, miR-21 reporter -5%, DT40 TDP1 CPT -8% and TDP1 cell noCPT -21%.
For COc1ccc(Cl)cc1NC(=O)CSc1cn(CC(=O)N2CCCCC2)c2ccccc12 the results were TDP1 block 0%, miR-21 reporter 30%, DT40 TDP1 CPT 21µM* and TDP1 cell noCPT 21µM*.

Bioassay records from PubChem.
